The text below walks through data of ChEMBL document CHEMBL1130129, “Immunologically specific activation of a cephalosporin derivative of mitomycin C by monoclonal antibody beta-lactamase conjugates” (J Med Chem, 1997).

The nature of the test: Ratio of kinetic constants for hydrolysis by beta-lactamase from Enterobacter cloacae P99 (kcat/Km). Details: unit not given here. The procedure, abridged:
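Purified E. cloacae β-lactamase (0.1 µg/mL) added to prodrug in PBS pH 7.2 containing 12.5 µg/mL bovine serum albumin, 23 °C; β-lactam hydrolysis followed by loss of absorbance at 260 nm. Initial velocities taken from linear portions of absorbance-time plots and used to derive kinetic constants.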

With `COc1cccc2c1C(=O)c1c(O)c3c(c(O)c1C2=O)C[C@@](O)(C(=O)CO)C[C@@H]3OC1CC(NC(=O)OCC2=C(C(=O)O)N3C(=O)[C@@H](NC(=O)Cc4ccccc4)[C@H]3SC2)C(O)C(C)O1` (stereo partly specified), the Ratio amounted to 6.1.
